For one assay, the target named is HLA DQA1*0101:DQB1*0501. Description: REVEAL class II binding assay (cell-free).
Assay [1] concerns the target HLA DQA1*0102:DQB1*0602, P01920. Description: REVEAL class II binding assay (cell-free).

In the assay with HLA DQA1*0101:DQB1*0501, MNLPSTKVSWAAVTL (modifications not checked) [Peptide #10 (Orexin DQB1*0602 fragment)] yielded an REVEAL 0 hrs (% of positive control signal) of 0.2, an REVEAL 24 hours (% of positive control signal) of 0.1 and a Stability index of 0.1. In assay [1], this molecule displayed an REVEAL 0 hrs (% of positive control signal) of 1.7, an REVEAL 24 hours (% of positive control signal) of 0.3 and a Stability index of 0.2.
In the assay with HLA DQA1*0101:DQB1*0501, MNLPSIKVSWAAVTL (modifications not checked) [Peptide #11 (Mutant of #10, Thr→Ile)] came in with an REVEAL 0 hrs (% of positive control signal) of 18, an REVEAL 24 hours (% of positive control signal) of 2.1 and a Stability index of 1.4. Besides, in assay [1], the REVEAL 0 hrs (% of positive control signal) was 47.5, the REVEAL 24 hours (% of positive control signal) was determined as 20.8 and the Stability index amounted to 9.6.
In the assay with HLA DQA1*0101:DQB1*0501, ASGNHAAGILTMGRR (modifications not checked) [Peptide #15 (Orexin fragment HCRT87-99)] registered an REVEAL 0 hrs (% of positive control signal) of 0.1, an REVEAL 24 hours (% of positive control signal) of 0.1 and a Stability index of 0.1. In assay [1], this molecule gave an REVEAL 0 hrs (% of positive control signal) of 0.2, an REVEAL 24 hours (% of positive control signal) of 0.2 and a Stability index of 0.3.
In the assay with HLA DQA1*0101:DQB1*0501, GAGNHAAGILTLGKR (modifications not checked) [Peptide #14 (Orexin fragment HCRT56-68)] gave an REVEAL 0 hrs (% of positive control signal) of 0, an REVEAL 24 hours (% of positive control signal) of 0 and a Stability index of 0. In assay [1], this molecule gave an REVEAL 0 hrs (% of positive control signal) of 0.1, an REVEAL 24 hours (% of positive control signal) of 0.1 and a Stability index of 0.1.
Regarding MNLPSMKVSWAAVTL (modifications not checked) [Peptide #12 (Mutant of #10, Thr→Met)], in the assay with HLA DQA1*0101:DQB1*0501, the REVEAL 0 hrs (% of positive control signal) came out at 2.5, the REVEAL 24 hours (% of positive control signal) was 0.8 and the Stability index came out at 0.4. In assay [1], this molecule gave an REVEAL 0 hrs (% of positive control signal) of 12.3, an REVEAL 24 hours (% of positive control signal) of 3.7 and a Stability index of 1.7.

(Values after patent publication US20190184007A1, “AVOIDING NARCOLEPSY RISK IN INFLUENZA VACCINES” (priority 2013, published 2019).)
